{"source": "patent US6485970B1", "about": "“Immunointeractive antibody” (priority 1997, dated 2002)", "data": [{"smiles": "Cc1ccccc1", "note": "[toluene]", "values": [{"measurement": "Reaction Time, Post Challenge Mean", "setting": "17 cases, post challenge", "result": 238.40, "unit": "millisecs"}, {"measurement": "Reaction Time", "setting": "one patient, after toluene challenge", "result": 219, "unit": "ms"}]}]}
